These are literature values, as cited in patent US20120122951A1 (priority 2009, published 2012).

This series relates to Chinese hamster V79 cells. Particulars: cited from earlier work.

As to methyl gentisic acid, the mutagenic activity result is listed as “no such mutagenic property”.
